{
  "source": "paper PMC3674150",
  "about": "(Cancer research, 2013)",
  "key": {"[1]": {"test_system": "BCR-ABL signaling (pCrkL) in K562 cells", "conditions": "2 h treatment at 10 nM, immunoblot"}, "[2]": {"test_system": "BCR-ABL signaling (pSTAT5) in primary CML cells", "conditions": "100 nM for 4 h, FACS"}},
  "data": [
    {"molecule": "Cc1nc(Nc2ncc(C(=O)Nc3c(C)cccc3Cl)s2)cc(N2CCN(CCO)CC2)n1", "note": "[dasatinib]", "values": [
      {"measurement": "pCrkL level after treatment compared to untreated/pretreatment", "setting": "[1]", "value": "< 10", "unit": "%"},
      {"measurement": "pSTAT5 at 24 h post expanded washout", "setting": "[2]", "value": "fully rescued to pretreatment levels"},
      {"measurement": "pSTAT5 at 24 h post standard washout", "setting": "[2]", "value": "partially"}
    ]}
  ]
}
